Test: clinical safety and tolerability (TEAEs, SAEs, DLTs, QTc), Phase 1 study

SMILES: CNc1nc(NC2CCN(Cc3ccc4c(cc(C#N)n4C[C@H](C)N4CCN(S(C)(=O)=O)CC4)c3C)CC2)c2cc(CC(F)(F)F)sc2n1
- ≥Grade 3 TEAEs (Ziftomenib-Related) (Ph1a 400 mg N=5): 1 (20.0) %
- Anemia, ≥Grade 3 TEAE (All Causality) (Ph1a 600 mg N=5): 3 (60.0) %
- Decreased appetite, ≥Grade 3 TEAE (All Causality) (Ph1a 600 mg N=5): 0%
- Febrile neutropenia, ≥Grade 3 TEAE (All Causality) (Ph1a 600 mg N=5): 1 (20.0) %
- Neutropenia, ≥Grade 3 TEAE (All Causality) (Ph1a 600 mg N=5): 0%
- Pneumonia, ≥Grade 3 TEAE (All Causality) (Ph1a 600 mg N=5): 0%
- SAEs (All Causality) (Ph1a 600 mg N=5): 4 (80.0) %
- SAEs (Ziftomenib-Related) (Ph1a 600 mg N=5): 0 (0.0) %
- TEAEs (All Causality) (Ph1a 600 mg N=5): 4 (80.0) %
- Thrombocytopenia, ≥Grade 3 TEAE (All Causality) (Ph1a 600 mg N=5): 3 (60.0) %
- ≥Grade 3 TEAEs (All Causality) (Ph1a 600 mg N=5): 4 (80.0) %
- ≥Grade 3 TEAEs (Ziftomenib-Related) (Ph1a 600 mg N=5): 1 (20.0) %
- Anemia, ≥Grade 3 TEAE (All Causality) (Ph1a 800 mg N=11): 2 (18.2) %
- Decreased appetite, ≥Grade 3 TEAE (All Causality) (Ph1a 800 mg N=11): 1 (9.1) %
- Febrile neutropenia, ≥Grade 3 TEAE (All Causality) (Ph1a 800 mg N=11): 1 (9.1) %
- Neutropenia, ≥Grade 3 TEAE (All Causality) (Ph1a 800 mg N=11): 3 (27.3) %
- Pneumonia, ≥Grade 3 TEAE (All Causality) (Ph1a 800 mg N=11): 3 (27.3) %
- SAEs (All Causality) (Ph1a 800 mg N=11): (81.8) %
- SAEs (Ziftomenib-Related) (Ph1a 800 mg N=11): (0.0) %
- TEAEs (All Causality) (Ph1a 800 mg N=11): (100.0) %
- Thrombocytopenia, ≥Grade 3 TEAE (All Causality) (Ph1a 800 mg N=11): 0%
- ≥Grade 3 TEAEs (All Causality) (Ph1a 800 mg N=11): (90.9) %
- ≥Grade 3 TEAEs (Ziftomenib-Related) (Ph1a 800 mg N=11): (18.2) %
- dose-limiting toxicity (Ph1a 1000 mg): differentiation syndrome
- SAEs (All Causality) (Ph1a 1000 mg N=1): 1 (100.0) %
- SAEs (Ziftomenib-Related) (Ph1a 1000 mg N=1): 1 (100.0) %
- TEAEs (All Causality) (Ph1a 1000 mg N=1): 1 (100.0) %
- ≥Grade 3 TEAEs (All Causality) (Ph1a 1000 mg N=1): 1 (100.0) %
- ≥Grade 3 TEAEs (Ziftomenib-Related) (Ph1a 1000 mg N=1): 1 (100.0) %
- Decreased appetite, TEAE ≥Grade 3 (Ph1a N=30): 10.0%
- Pneumonia, TEAE ≥Grade 3 (Ph1a N=30): 23.3%
- Pulmonary embolism, ≥Grade 3 ziftomenib-related TEAE (Ph1a N=30): 6.7%
- SAEs (All Causality) (Ph1a all patients N=30): 24 (80.0) %
- SAEs (Ziftomenib-Related) (Ph1a all patients N=30): 4 (13.3) %
- TEAEs (All Causality) (Ph1a all patients N=30): 29 (96.7) %
- change in rate or severity of AEs with increasing dose (Ph1a and Ph1b): no significant increase in rate or severity of AEs with increasing dose
- most frequent TEAEs reported by ≥15% of patients (Ph1a and Ph1b): diarrhea, anemia, nausea, increased blood creatinine, fatigue, pneumonia, increased alanine aminotransferase, arthralgia, increased aspartate aminotransferase, decreased appetite, peripheral edema, pyrexia, anemia, epistaxis, febrile neutropenia, hypomagnesemia, and differentiation syndrome
- relationship between dose and rate of TEAEs (Ph1a and Ph1b): no apparent relationship
- safety and tolerability, 200 mg vs 600 mg (Ph1a and Ph1b): comparable safety and tolerability
- SAEs (All Causality) (Ph1a+1b KMT2A-r 200 mg N=14): 12 (85.7) %
- SAEs (Ziftomenib-Related) (Ph1a+1b KMT2A-r 200 mg N=14): 5 (35.7) %
- TEAEs (All Causality) (Ph1a+1b KMT2A-r 200 mg N=14): 14 (100.0) %
- ≥Grade 3 TEAEs (All Causality) (Ph1a+1b KMT2A-r 200 mg N=14): 14 (100.0) %
- ≥Grade 3 TEAEs (Ziftomenib-Related) (Ph1a+1b KMT2A-r 200 mg N=14): 7 (50.0) %
- SAEs (All Causality) (Ph1a+1b KMT2A-r 600 mg N=10): 5 (50.0) %
- SAEs (Ziftomenib-Related) (Ph1a+1b KMT2A-r 600 mg N=10): 2 (20.0) %
- TEAEs (All Causality) (Ph1a+1b KMT2A-r 600 mg N=10): 9 (90.0) %
- ≥Grade 3 TEAEs (All Causality) (Ph1a+1b KMT2A-r 600 mg N=10): 6 (60.0) %
- ≥Grade 3 TEAEs (Ziftomenib-Related) (Ph1a+1b KMT2A-r 600 mg N=10): 2 (20.0) %
- SAEs (Ziftomenib-Related) (Ph1a+1b KMT2A-r all N=24): 7 (29.2) %
- TEAEs (All Causality) (Ph1a+1b KMT2A-r all N=24): 23 (95.8) %
- ≥Grade 3 TEAEs (All Causality) (Ph1a+1b KMT2A-r all N=24): 20 (83.3) %
- ≥Grade 3 TEAEs (Ziftomenib-Related) (Ph1a+1b KMT2A-r all N=24): 9 (37.5) %
- SAEs (All Causality) (Ph1a+1b NPM1-m 200 mg N=6): 4 (66.7) %
- SAEs (Ziftomenib-Related) (Ph1a+1b NPM1-m 200 mg N=6): 1 (16.7) %
- TEAEs (All Causality) (Ph1a+1b NPM1-m 200 mg N=6): 6 (100.0) %
- ≥Grade 3 TEAEs (All Causality) (Ph1a+1b NPM1-m 200 mg N=6): 5 (83.3) %
- ≥Grade 3 TEAEs (Ziftomenib-Related) (Ph1a+1b NPM1-m 200 mg N=6): 1 (16.7) %
- SAEs (All Causality) (Ph1a+1b NPM1-m 600 mg N=11): 5 (45.5) %
- SAEs (Ziftomenib-Related) (Ph1a+1b NPM1-m 600 mg N=11): 4 (36.4) %
- TEAEs (All Causality) (Ph1a+1b NPM1-m 600 mg N=11): 9 (81.8) %
- ≥Grade 3 TEAEs (All Causality) (Ph1a+1b NPM1-m 600 mg N=11): 7 (63.6) %
- ≥Grade 3 TEAEs (Ziftomenib-Related) (Ph1a+1b NPM1-m 600 mg N=11): 6 (54.5) %
- SAEs (Ziftomenib-Related) (Ph1a+1b NPM1-m all N=17): 5 (29.4) %
- TEAEs (All Causality) (Ph1a+1b NPM1-m all N=17): 15 (88.2) %
- ≥Grade 3 TEAEs (All Causality) (Ph1a+1b NPM1-m all N=17): 12 (70.6) %
- ≥Grade 3 TEAEs (Ziftomenib-Related) (Ph1a+1b NPM1-m all N=17): 7 (41.2) %
- patients reporting at least one TEAE (Ph1a, 11 of 11 patients as printed): 100%
- trends in clinical laboratory assessments, vital signs, or ECGs (Ph1b): no clinically meaningful trends
- Increased alanine aminotransferase, ziftomenib-related SAE (Ph1b 200 mg): 1 patient
- Pleuritic chest pain, ziftomenib-related SAE (Ph1b 200 mg): 1 patient
- patients requiring dose interruptions (Ph1b 200 mg): 41.2%
- patients requiring treatment discontinuation (Ph1b 200 mg): 11.8%
- Leukocytosis, TEAE ≥Grade 3 (Ph1b 200 mg N=12): 17%
- Respiratory failure, TEAE ≥Grade 3 (Ph1b 200 mg N=12): 17%
- SAEs (All Causality) (Ph1b 200 mg N=17): (82.4) %
- TEAEs (All Causality) (Ph1b 200 mg N=17): (100.0) %
- ≥Grade 3 TEAEs (All Causality) (Ph1b 200 mg N=17): (94.1) %
- Cardiomyopathy, ziftomenib-related SAE (Ph1b 600 mg): 1 patient
- Diarrhea, ziftomenib-related SAE (Ph1b 600 mg): 1 patient
- Febrile neutropenia, ziftomenib-related SAE (Ph1b 600 mg): 2 patients
- Leukocytosis, ziftomenib-related SAE (Ph1b 600 mg): 1 patient
- Myocarditis, ziftomenib-related SAE (Ph1b 600 mg): 1 patient
- Worsening dyspnea, ziftomenib-related SAE (Ph1b 600 mg): 1 patient
- patients requiring dose interruptions (Ph1b 600 mg): 31.6%
- patients requiring treatment discontinuation (Ph1b 600 mg): 10.5%
- Diarrhea, TEAE ≥Grade 3 (Ph1b 600 mg N=12): 17%
- Leukocytosis, TEAE ≥Grade 3 (Ph1b 600 mg N=12): 17%
- Leukopenia, TEAE ≥Grade 3 (Ph1b 600 mg N=12): 17%
- SAEs (All Causality) (Ph1b 600 mg N=19): 9 (47.4) %
- TEAEs (All Causality) (Ph1b 600 mg N=19): 17 (89.5) %
- ≥Grade 3 TEAEs (All Causality) (Ph1b 600 mg N=19): 12 (63.2) %
- ≥Grade 3 TEAEs Occurring in >10% of Participants (Ph1b NPM1-m 200 mg n=4): 0
- ≥Grade 3 TEAEs Occurring in >10% of Participants (Ph1b NPM1-m 600 mg n=20): 0
- Leukocytosis, TEAE ≥Grade 3 (Ph1b first 24 patients): 17%
- Leukopenia, TEAE ≥Grade 3 (Ph1b first 24 patients): 13%
- Platelet count decreased, TEAE ≥Grade 3 (Ph1b first 36 patients): 11.1%
- Pneumonia, TEAE ≥Grade 3 (Ph1b first 36 patients): 11.1%
- TEAE requiring dose reduction (Ph1b first 36 patients): No patient reported a TEAE requiring dose reduction
- Alanine aminotransferase increased, Grade 3 or above TEAE (all patients, all doses N=83): 5 (6.0) %
- Anemia, Grade 3 or above TEAE (all patients, all doses N=83): 20 (24.1) %
- Diarrhea, Grade 3 or above TEAE (all patients, all doses N=83): 4 (4.8) %
- Febrile neutropenia, Grade 3 or above TEAE (all patients, all doses N=83): 18 (21.7) %
- Hyperglycemia, Grade 3 or above TEAE (all patients, all doses N=83): 5 (6.0) %
- Hypoxia, Grade 3 or above TEAE (all patients, all doses N=83): 7 (8.4) %
- Leukocytosis, Grade 3 or above TEAE (all patients, all doses N=83): 5 (6.0) %
- Neutropenia, Grade 3 or above TEAE (all patients, all doses N=83): 8 (9.6) %
- Neutrophil count decreased, Grade 3 or above TEAE (all patients, all doses N=83): 6 (7.2) %
- Patients with Grade 3 or above TEAE (all patients, all doses N=83): 76 (91.6) %
- Platelet count decreased, Grade 3 or above TEAE (all patients, all doses N=83): 6 (7.2) %
- Pneumonia, Grade 3 or above TEAE (all patients, all doses N=83): 16 (19.3) %
- Sepsis, Grade 3 or above TEAE (all patients, all doses N=83): 10 (12.0) %
- Thrombocytopenia, Grade 3 or above TEAE (all patients, all doses N=83): 11 (13.3) %
- additional, less common adverse events possibly related to DS (almost exclusively in KMT2A-r patients): alanine aminotransferase increase, pleuritic chest pain, myocarditis
- drug-drug interactions (clinical): No significant drug-drug interactions were noted
- QTc prolongation attributable to ziftomenib (cutoff 30 Aug 2023): not detected
- clinically significant cytopenias in patients achieving CR or CRh (cutoff 30 Aug 2023): not seen
- drug-induced QTc prolongation (overall study): No evidence was observed
